Test system: T-cell subtypes, NK cells
Test: Longitudinal blood analysis of T-cell subsets and NK cells (MAGNIFY-MS)
[1] = Patient Australia VZV-70056800221260001, month 0, 8.6 wk after Zostavax, 1.3 wk before first Mavenclad dose
[2] = Patient Australia VZV-70056800221260001, month 3, 24.6 wk after Zostavax, 14.7 wk after first Mavenclad dose
[3] = Patient Canada VZV-70056800222530003, month 0, 9.7 wk after Shingrix, before first Mavenclad dose

Q: Which results are given for `Nc1nc(Cl)nc2c1ncn2[C@H]1C[C@H](O)[C@@H](CO)O1` [cladribine tablets, Cladribine]?
A: CD4+ T-cells, change vs baseline (Month 1): −76%; CD8+ T-cells, change vs baseline (Month 1): −22%; Total CD4+ T cells, depletion (minor effects) (Month 1): 30%; Total CD8+ T cells, depletion (minor effects) (Month 1): 20%; CD4+ T-cells, change vs baseline (Month 2): −90%; CD8+ T-cells, change vs baseline (Month 2): −37%; CD4+ CM, change vs baseline (Month 3): −56%; CD4+ EffM, change vs baseline (Month 3): −40%; CD4+ T-cells, change vs baseline (Month 3): −76%; CD4+ Treg, change vs baseline (Month 3): −35%; CD8+ CM, change vs baseline (Month 3): −51%; CD8+ EfM, change vs baseline (Month 3): −40%; CD8+ T-cells, change vs baseline (Month 3): −48%; Naïve CD4+ T cells, change vs baseline (Month 3): −63%; Naïve CD8 T-cells, change vs baseline (Month 3): −76%; CD4+ TH1, change vs baseline (Month 3, listed as Cladribine): −56%; CD4+TH17, change vs baseline (Month 3, listed as Cladribine): −37%; CD4+ TH1, change vs baseline (Month 3, listed as cladribine): −56%; CD4+TH17, change vs baseline (Month 3, listed as cladribine): −37%; CD4+ CM, change vs baseline (Month 6): −59%; CD4+ EffM, change vs baseline (Month 6): −38%; CD4+ TH1, change vs baseline (Month 6): −55%; CD4+ Treg, change vs baseline (Month 6): −43%; CD4+TH17, change vs baseline (Month 6): −42%; CD8+ CM, change vs baseline (Month 6): −52%; CD8+ EfM, change vs baseline (Month 6): −38%; Naïve CD4+ T cells, change vs baseline (Month 6): −67%; Naïve CD8 T-cells, change vs baseline (Month 6): −75%; CD4+ T-cells, change vs baseline (Month 6, listed as Cladribine): −57%; CD8+ T-cells, change vs baseline (Month 6, listed as Cladribine): −50%; CD4+ T-cells, change vs baseline (Month 6, listed as cladribine): −60%; CD8+ T-cells, change vs baseline (Month 6, listed as cladribine): −50%; CD4+ CM, change vs baseline (Month 12): −48%; CD4+ EffM, change vs baseline (Month 12): −27%; CD4+ T-cells, change vs baseline (Month 12): −11%; CD4+ TH1, change vs baseline (Month 12): −46%; CD4+ Treg, change vs baseline (Month 12): −36%; CD4+TH17, change vs baseline (Month 12): −29%; CD8+ CM, change vs baseline (Month 12): −35%; CD8+ EfM, change vs baseline (Month 12): −27%; CD8+ T-cells, change vs baseline (Month 12): −46%; Naïve CD4+ T cells, change vs baseline (Month 12): −59%; Naïve CD8 T-cells, change vs baseline (Month 12): −60%; CD3+ TC [1]: 880 cells/μL; CD4+ TC [1]: 586 cells/μL; CD4+ Th1 TC [1]: 263.0 cells/μL; CD4+ Th2 TC [1]: 220.8 cells/μL; CD4+ Th 17 TC [1]: 7.2 cells/μL; CD4+ Treg [1]: 38.4 cells/μL; CD4+ cent. mem. TC [1]: 339.5 cells/μL; CD4+ eff. mem. TC [1]: 134.5 cells/μL; CD4+ naïve TC [1]: 111.3 cells/μL; CD8+ TC [1]: 282 cells/μL; CD8+ cent. mem. TC [1]: 34.1 cells/μL; CD8+ eff. mem. TC [1]: 89.0 cells/μL; CD8+ naïve TC [1]: 107.8 cells/μL; CD8+ term. diff. effector TC [1]: 51.1 cells/μL; CD16+ CD56+ NKC [1]: 77 cells/μL; CD3+ TC [2]: 669 cells/μL; CD4+ TC [2]: 464 cells/μL; CD4+ Th1 TC [2]: 209.6 cells/μL; CD4+ Th2 TC [2]: 162.8 cells/μL; CD4+ Th 17 TC [2]: 8.2 cells/μL; CD4+ Treg [2]: 33.8 cells/μL; CD4+ cent. mem. TC [2]: 257.7 cells/μL; CD4+ eff. mem. TC [2]: 132.9 cells/μL; CD4+ naïve TC [2]: 72.3 cells/μL; CD8+ TC [2]: 196 cells/μL; CD8+ cent. mem. TC [2]: 27.5 cells/μL; CD8+ eff. mem. TC [2]: 67.2 cells/μL; CD8+ naïve TC [2]: 46.6 cells/μL; CD8+ term. diff. effector TC [2]: 54.7 cells/μL; CD16+ CD56+ NKC [2]: 79 cells/μL; CD3+ TC [3]: 1,634 cells/μL; CD4+ TC [3]: 956 cells/μL; CD4+ Th1 TC [3]: 440.8 cells/μL; CD4+ Th2 TC [3]: 443.1 cells/μL; CD4+ Th 17 TC [3]: 10.2 cells/μL; CD4+ Treg [3]: 91.9 cells/μL; CD4+ cent. mem. TC [3]: 460.6 cells/μL; CD4+ eff. mem. TC [3]: 238.2 cells/μL; CD4+ naïve TC [3]: 256.4 cells/μL; CD8+ TC [3]: 655 cells/μL; CD8+ cent. mem. TC [3]: 73.9 cells/μL; CD8+ eff. mem. TC [3]: 183.9 cells/μL; CD8+ naïve TC [3]: 356.1 cells/μL; CD8+ term. diff. effector TC [3]: 41.2 cells/μL; CD16+ CD56+ NKC [3]: 243 cells/μL; CD3+ TC (Patient Canada VZV-70056800222530003, month 3, 23.0 wk after Shingrix, 13.3 wk after first Mavenclad dose): 543 cells/μL
